Screens from PubChem BioAssay.
In the library only some 2.8% were active in any assay of this set; here they are far more common.
C2C12 statin = suppression of simvastatin myotoxicity; C2C12 myotubes + simvastatin, ATP luminescence, 48 h; scaled: DMSO 0, geranylgeraniol control 100; rescue of ATP level, % at 7.49 µM; actives 0.78% (n = 330,000); AID 602340;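 active = mean ATP rescue above about 67%, or every replicate alone reaching that limit, limit read from the data, passing the limit was not always enough; inconclusive = no clear call, values can overlap the other calls; inactive = mean under the limit and some replicate under it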;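 also: myotubes were challenged with 10 µM simvastatin during compound exposure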
esBAF inh = inhibitors of esBAF chromatin remodeling in mouse ES cells; AID 602393; reporter increase, % at 12.5 µM; actives 2% (n = 350,000); Bmi1-luciferase knock-in reporter, 24 h; 100% = twice the neutral-well signal; in the data active = activation above about 40%; inconclusive = no clear call, values can overlap the other calls;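 also: a rise in the Bmi1 reporter signal indicates esBAF inhibition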
UUG fidelity = alters start codon recognition fidelity in yeast. S. cerevisiae UUG-firefly luciferase reporter, luminescence/redox ratio. 350,000 tested, 0.13% active. activity score, % at 18.7 µM. AID 602363;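 active means replicate mean at a twofold rise or more, about +100% in these data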;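 further: firefly luciferase made from a UUG start codon reports start codon fidelity; reporter light over untreated wells divided by growth signal over untreated wells; some hits fall short of that in this replicate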
E-selectin induc = induces E-selectin expression in human endothelial cells; P16581; HUVEC E-selectin immunofluorescence imaging; normalized: neutral wells 0, TNF-alpha wells 100; activation, % at 7.58 µM; actives 0.37% (n = 260,000);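 active = mean E-selectin-positive cell signal at least 10% of the positive control, reached in at least 60% of replicates, without over 20% cell loss; inconclusive = no rule given, readout overlaps actives, possibly toxicity-flagged; inactive = the rest, including those meeting only one limit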
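System: HUVEC, human umbilical vein endothelial cells; quantity: 3,000 cells/well; buffer or medium: EGM-2 medium, gelatin-coated wells; dosing: single-point compound dose; detection: immunofluorescence imaging; evaluation: % PE-positive cells; benchmarks: TNF-alpha, DMSO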
PGC1a acetyl inh = PGC1a acetylation modulation, inhibitor mode; U2OS PGC1a acetylation, AlphaScreen anti-acetyl-lysine; with virally co-expressed GCN5 acetyltransferase; inhibition, % at 15.6 µM; actives 0.17% (n = 350,000); AID 651687;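 active = every replicate shows inhibition of at least 40%; inconclusive = mean inhibition at least 40% but some replicate below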
PglD inh = inhibitors of Campylobacter jejuni PglD acetyltransferase; purified PglD enzyme, DTNB colorimetric CoA detection; inhibition, % at 12.5 µM; actives 0.098% (n = 360,000); in the data active = inhibition above about 16%, passing the limit was not always enough; inconclusive = no clear call, values can overlap the other calls
Ring1 derepress = de-represses Ring1 in mouse ESCs, confirming esBAF inhibition. shares compounds with esBAF inh. mouse ESC E14, Ring1 mRNA RT-qPCR fold change. fold change at 33 µM. 550 tested, under 10 active;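 active = Ring1 gene expression raised more than 2-fold over untreated cells in both replicates at either tested dose; inconclusive = only one replicate above 2-fold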;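 also: Ring1 transcript normalised to actin housekeeping signal by TaqMan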
esBAF Fgf4 qPCR = represses Fgf4 in mouse ESCs, confirming esBAF inhibition; shares compounds with esBAF inh; mouse ESC E14, Fgf4 mRNA qPCR fold change; hits give low values; Fgf4 expression fold change at 33 µM; actives 4% (n = 550); AID 743177;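 active = Fgf4 expression under 0.8 fold of control in both repeat measurements at one or both tested doses; inconclusive = under 0.8 fold in just a single repeat measurement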;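 also: Fgf4 transcript normalised to actin in duplex TaqMan qPCR; cells exposed to compound for 24 h before lysis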
esBAF Bmi1 qPCR = esBAF inhibition confirmed by Bmi1 de-repression | shares compounds with esBAF inh | mouse ESE14 ES cells, Bmi1 mRNA qPCR fold; hits give high values | fold change at 33 µM | 550 tested, under 10 active;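 active = Bmi1 expression fold change above 6 at either tested concentration, seen in replicate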;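 also: higher fold means more Bmi1 de-repression and stronger esBAF inhibition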
A549 cytotox = kills or reduces viability of A549 cells; shares compounds with esBAF inh; A549 cytotoxicity, plate reader; cell viability change % (negative = cytotoxic), % at 25 µM, hits read low; 550 tested, under 10 active; call rule not given here
HepG2 tox SP = kills or reduces viability of HepG2 cells; shares compounds with esBAF inh; HepG2 cytotoxicity, plate reader; hits give low values; activity change, negative = inhibition, % at 25 µM; actives 4% (n = 550); AID 743189; in the data active = activity change below about -50%
HEK293 cytotox SP = cytotoxicity in HEK293 cells | shares compounds with esBAF inh | plate reader | activity change, negative = inhibition, % at 25 µM, hits read low | actives 3% (n = 550); in the data active = activity change below about -38%, passing the limit was not always enough
Of the large screens only hits and unclear results are named; the others gave an inactive call (follow-up assays come after a bar, where they were run).

CC(=O)c1c(C)[nH]c(C(=O)OCc2ccc(Br)cc2)c1C	esBAF inh 63.5 (no result: UUG fidelity, E-selectin induc, PglD inh) | Ring1 derepress inactive | esBAF Fgf4 qPCR inactive | esBAF Bmi1 qPCR inactive | A549 cytotox inactive | HepG2 tox SP inactive | HEK293 cytotox SP inactive
CN1C(=O)c2cc(NC(=O)c3cccs3)ccc2OC[C@H]2O[C@H](CC(=O)NCC(F)(F)F)CC[C@H]21	none
Cc1ccc(C)c(NC(=O)c2cc(-c3cc(C)c(C)cc3O)n[nH]2)c1	esBAF inh 57.4 (no result: E-selectin induc) | Ring1 derepress inactive | esBAF Fgf4 qPCR inactive | esBAF Bmi1 qPCR inactive | A549 cytotox inactive | HepG2 tox SP inactive | HEK293 cytotox SP inactive
COc1ccc2c3c(n(C)c2c1)[C@H](CO)N(C(=O)c1cnccn1)CC31CN(C(=O)c2ccncc2)C1	none (no result: C2C12 statin, esBAF inh, UUG fidelity, PglD inh)
Cc1ccc(OCc2cnc(Cl)s2)c(C)c1	esBAF inh 83.9 (no result: E-selectin induc) | Ring1 derepress inactive | esBAF Fgf4 qPCR inactive | esBAF Bmi1 qPCR inactive | A549 cytotox inactive | HepG2 tox SP inactive | HEK293 cytotox SP inactive
COc1ccc(OCc2cnc(Cl)s2)cc1	none (no result: C2C12 statin, E-selectin induc)
CN(CC(=O)Nc1ccccc1Br)C(=O)c1ccc(COc2ccccc2)cc1	none
COc1ccc2cc(C(=O)N(C)CC(=O)Nc3ccccc3Br)ccc2c1	esBAF inh 60.2 | Ring1 derepress inactive | esBAF Fgf4 qPCR inactive | esBAF Bmi1 qPCR inactive | A549 cytotox inactive | HepG2 tox SP inactive | HEK293 cytotox SP inactive
CN(CC(=O)Nc1ccccc1Br)C(=O)c1cc2c(s1)CCCCC2	esBAF inh 67.1 (no result: UUG fidelity, E-selectin induc, PglD inh) | Ring1 derepress inactive | esBAF Fgf4 qPCR inactive | esBAF Bmi1 qPCR inactive | A549 cytotox inactive | HepG2 tox SP inactive | HEK293 cytotox SP inactive
CC(C)NC(=O)Nc1ccc2c(c1)CC(=O)N([C@@H](C)CO)C[C@@H](C)[C@H](CN(C)C(=O)Nc1ccc(C(F)(F)F)cc1)O2	none
C[C@H]1CN([C@@H](C)CO)C(=O)c2cc(NC(=O)Cn3cnnn3)ccc2O[C@@H]1CN(C)C(=O)Nc1cccc2ccccc12	none
COc1cc(Cl)ccc1OCc1cc(C(=O)N2CCN(C)C(=O)[C@@H]2C)no1	esBAF inh 95.8 (no result: E-selectin induc) | Ring1 derepress inactive | esBAF Fgf4 qPCR 0.498 | esBAF Bmi1 qPCR inactive | A549 cytotox inactive | HepG2 tox SP inactive | HEK293 cytotox SP inactive
c1ccc(C2Nc3ccccc3Oc3ccccc32)cc1 (stereo not drawn)	none (no result: E-selectin induc, PglD inh)
c1ccc2c(c1)Nc1cc3ccccc3cc1O2	esBAF inh 84.0 | Ring1 derepress inactive | esBAF Fgf4 qPCR inactive | esBAF Bmi1 qPCR inactive | A549 cytotox inactive | HepG2 tox SP inactive | HEK293 cytotox SP inactive
CCC(=O)N1CC[C@@H]2[C@H](CO)Nc3ccc(-c4ccc(F)cc4)cc3[C@@H]21	none
O/N=C\c1cnc(N2CCN(c3ccccc3)CC2)s1	esBAF inh 84.3 (no result: E-selectin induc) | Ring1 derepress inactive | esBAF Fgf4 qPCR inactive | esBAF Bmi1 qPCR inactive | A549 cytotox inactive | HepG2 tox SP inactive | HEK293 cytotox SP inactive
O=Cc1cnc(N2CCCCC2)s1	none (no result: C2C12 statin, esBAF inh, UUG fidelity, PGC1a acetyl inh, PglD inh)
Cc1ccnc(NC(=O)c2ccc(OCc3c(C)noc3C)cc2)c1	esBAF inh 70.0 | Ring1 derepress inactive | esBAF Fgf4 qPCR inconclusive | esBAF Bmi1 qPCR inactive | A549 cytotox inactive | HepG2 tox SP inactive | HEK293 cytotox SP inactive
COc1cccc(NC(=O)CN(C)C(=O)c2sc3cc(Cl)ccc3c2Cl)c1	none (no result: PGC1a acetyl inh)
COc1cccc(NC(=O)CN(C)C(=O)CNC(=O)c2sc3ccccc3c2Cl)c1	esBAF inh 66.5 | Ring1 derepress inactive | esBAF Fgf4 qPCR inactive | esBAF Bmi1 qPCR inactive | A549 cytotox inactive | HepG2 tox SP inactive | HEK293 cytotox SP inactive
CCCCC(=O)N1CCCC(c2nc(-c3cccc(OC)c3)no2)C1 (stereo not drawn)	none (no result: E-selectin induc, PGC1a acetyl inh)
COc1cccc(-c2noc(C3CCCN(C(=O)CC(C)(C)C)C3)n2)c1 (stereo not drawn)	esBAF inh 82.8 (no result: UUG fidelity, PGC1a acetyl inh, PglD inh) | Ring1 derepress inactive | esBAF Fgf4 qPCR inactive | esBAF Bmi1 qPCR inactive | A549 cytotox inactive | HepG2 tox SP inactive | HEK293 cytotox SP inactive
O=C(O)c1ccc(O)c2ncccc12	esBAF inh 71.0 | Ring1 derepress inactive | esBAF Fgf4 qPCR inactive | esBAF Bmi1 qPCR inactive | A549 cytotox inactive | HepG2 tox SP inactive | HEK293 cytotox SP inactive
CCC(=O)Nc1ccc2c(c1)C(=O)N(C)C[C@H](OC)[C@@H](C)CN(Cc1ccccn1)[C@@H](C)CO2	none
Cn1c2nc3ccccc3c-2nc2ccccc21	esBAF inh 54.1 | Ring1 derepress inactive | esBAF Fgf4 qPCR inactive | esBAF Bmi1 qPCR 6.44 | A549 cytotox inactive | HepG2 tox SP inactive | HEK293 cytotox SP inactive
Cn1ccc2c(-c3ccc(C(=O)O)cc3)cc3c(c21)C1CCC3C1 (stereo not drawn)	esBAF inh 66.0 | Ring1 derepress inactive | esBAF Fgf4 qPCR inactive | esBAF Bmi1 qPCR inactive | A549 cytotox inactive | HepG2 tox SP inactive | HEK293 cytotox SP inactive
C[C@@H]1CN([C@@H](C)CO)C(=O)Cc2cc(NC(=O)Cc3ccccc3)ccc2O[C@H]1CN(C)Cc1ccncc1	none
O=c1c2ccccc2sc2ccccc12	esBAF inh 57.5 | Ring1 derepress inactive | esBAF Fgf4 qPCR inactive | esBAF Bmi1 qPCR inactive | A549 cytotox inactive | HepG2 tox SP inactive | HEK293 cytotox SP inactive
O=c1c2ccccc2sc2ccc(Cl)cc12	none (no result: C2C12 statin, esBAF inh, UUG fidelity, E-selectin induc, PglD inh)
Nc1c(C(=O)N2CCCCC2)sc(=S)n1-c1ccccc1	none (no result: E-selectin induc)
Nc1nc(SCc2ccccc2)sc1C(=O)N1CCCCC1	esBAF inh 59.6 (no result: E-selectin induc) | Ring1 derepress inactive | esBAF Fgf4 qPCR inactive | esBAF Bmi1 qPCR inactive | A549 cytotox inactive | HepG2 tox SP inactive | HEK293 cytotox SP inactive
O=C([C@H]1N[C@H]2c3ccc(/C=C/c4ccccc4)c(=O)n3C[C@H]2[C@@H]1CO)N1CCCCC1	none (no result: UUG fidelity, PGC1a acetyl inh)
COc1ccc(C2CC2/C(=N/OC(=O)c2cccs2)c2ccccc2)cc1 (stereo not drawn)	esBAF inh 68.0 (no result: C2C12 statin, E-selectin induc) | Ring1 derepress inactive | esBAF Fgf4 qPCR inactive | esBAF Bmi1 qPCR inactive | A549 cytotox inactive | HepG2 tox SP inactive | HEK293 cytotox SP inactive
COc1ccc(C(=O)O/N=C(/c2cccs2)C(C)(C)C)cc1	none
